Laboratory results as given in PMC6163981, “Novel and Selective Rhipicephalus microplus Triosephosphate Isomerase Inhibitors with Acaricidal Activity” (Veterinary Sciences, 2018).

Tests used:
[1] = tested on: mice (strain B6D2F1); assay: Oral acute toxicology in mice (OECD up-and-down)
[2] = tested on: Rhipicephalus microplus partially engorged female ticks; assay: Injection of inhibitor into partially engorged females during artificial capillary feeding; conditions: 2 nmol/tick

## O=[N+]([O-])c1cccc2no[n+]([O-])c12
[1]
  toxicity grade according to the World Health Organization guidelines: slight toxicity
[2]
  induced mortality: 100%
